Ab-14 heavy chain CDR variants: yeast mating affinities

From the AlphaSeq antibody data of Engelhart et al. 2022 (doi:10.1038/s41597-022-01779-4), copy in the FLAb collection.

Target peptide (SARS-CoV-2 spike, HR2 region): PDVDLGDISGINAS

Parent scFv Ab-14: VH joined to VL by the linker GGGGSGGGGSGGGGS. Changes lie in the heavy chain CDRs alone.
VH: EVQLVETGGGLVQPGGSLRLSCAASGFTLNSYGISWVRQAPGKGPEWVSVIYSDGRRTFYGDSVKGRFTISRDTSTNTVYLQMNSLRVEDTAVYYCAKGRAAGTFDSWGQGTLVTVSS
VL: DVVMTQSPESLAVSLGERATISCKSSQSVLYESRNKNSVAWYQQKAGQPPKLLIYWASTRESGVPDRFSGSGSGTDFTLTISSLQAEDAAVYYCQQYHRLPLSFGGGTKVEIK

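AAYL49 was designed without a model: most single CDR substitutions and a random sample of double and triple ones. Affinity was read by AlphaSeq, a pooled yeast mating assay with surface-displayed partners. Mating (16 h, 30 °C) was followed by selection of diploids and sequencing of their barcodes. The ratio of observed to expected reads was calibrated, replicate by replicate, on BCL2-family standards whose Kd was known from biolayer interferometry. Each pool was mated in three replicate cultures.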

Changes read parent residue, position, new residue, counted from the first residue of the VH shown.
All variants listed here change D106 of the VH, counted from its first residue.
Affinities are written as log10 Kd with Kd in nM; a lower number is a better binder.
"nd" marks a missing value. The strain was present, yet no cells mated with the target were sequenced in that replicate, which points to weak or no binding.
Empty control strains, which show no peptide, gave a signal in 15% of pairings with library AAYL49; the median was 4.06 and 95% of these signals were weaker than 2.83. No background was subtracted. Also given: how often the same scFv was detected with the empty control strains.
For reference, the parent read 0.65 as the reference entry and 4.11 (one replicate of three) as a member of this library.

With G61F+D106W the result was nd, 3.42, nd (controls 0 of 9).
With G55W+D62F+D106I the result was nd, nd, nd (controls 1 of 9).
With V50W+Y52Q+D106Y the result was 4.76, 4.09, nd (controls 2 of 9).
With G26Q+Y52L+D106C the result was nd, nd, nd (controls 0 of 9).
With V50T+D54H+D106G the result was nd, nd, 3.15 (controls 2 of 9).
With G26Y+T104G+D106K the result was nd, 4.52, nd (controls 1 of 9).
With G103V+D106C the result was nd, nd, nd (controls 0 of 9).
With V50R+G55N+D106T the result was 4.04, nd, nd (controls 2 of 9).
With V64T+D106K the result was nd, nd, nd (controls 2 of 9).
With R57P+Y60V+D106Y the result was nd, nd, nd (controls 0 of 9).
With F27L+D106K+S107T the result was nd, 3.56, nd (controls 2 of 9).
With V50T+R100M+D106I the result was nd, nd, nd (controls 1 of 9).
With G33C+G103M+D106P the result was 4.31, nd, 4.13 (controls 2 of 9).
With N30A+G61A+D106V the result was 0.27, 0.47, 0.18 (controls 2 of 9).
With G26F+D106W the result was 2.95, 2.77, 2.74 (controls 3 of 9).
With Y60G+G103P+D106L the result was nd, nd, nd (controls 3 of 9).
With R56Q+D106Q+S107A the result was 3.80, nd, nd (controls 1 of 9).
With I51V+R100G+D106R the result was nd, nd, nd (controls 0 of 9).
With G26H+G103Q+D106P the result was 2.86, 2.35, 2.76 (controls 4 of 9).
With L29P+Y52N+D106M the result was nd, 4.15, 4.42 (controls 2 of 9).
With G33H+G61E+D106C the result was 4.55, 4.20, nd (controls 4 of 9).
With I34G+T58L+D106M the result was 2.74, nd, nd (controls 0 of 9).
With R56W+G99Q+D106M the result was nd, nd, nd (controls 1 of 9).
With T58H+Y60F+D106S the result was 6.02, 3.40, nd (controls 4 of 9).
With F27N+V50C+D106V the result was nd, 3.33, 5.81 (controls 2 of 9).
With F59I+F105N+D106N the result was 3.68, nd, nd (controls 2 of 9).
With S53L+R57M+D106G the result was 5.58, nd, 3.76 (controls 2 of 9).
With N30M+I51F+D106L the result was nd, nd, nd (controls 0 of 9).
With S31L+S53M+D106M the result was nd, nd, nd (controls 0 of 9).
With K65C+G103Q+D106S the result was nd, nd, 5.49 (controls 1 of 9).
With D54L+T58D+D106K the result was nd, 2.99, nd (controls 0 of 9).
With V50F+A102I+D106P the result was nd, nd, nd (controls 2 of 9).
With L29E+R56W+D106F the result was 4.12, nd, 5.16 (controls 3 of 9).
With K65T+A101W+D106S the result was nd, nd, nd (controls 2 of 9).
With G61L+T104S+D106W the result was 0.35, 0.59, 0.55 (controls 1 of 9).
With D106G the result was 0.62, 0.98, 1.09 (controls 1 of 9).
With G33E+D106R the result was nd, nd, nd (controls 2 of 9).
With F59Y+K65H+D106L the result was nd, nd, nd (controls 1 of 9).
With G26A+I51G+D106P the result was 4.56, 3.39, nd (controls 4 of 9).

Repeated from above, the 3 best binders with a signal in all replicates:

The variant N30A+G61A+D106V gave 0.27, 0.47, 0.18 (controls 2 of 9).
The variant G61L+T104S+D106W gave 0.35, 0.59, 0.55 (controls 1 of 9).
The variant D106G gave 0.62, 0.98, 1.09 (controls 1 of 9).